Literature values, collected in article PMC6985102 (Scientific Reports, 2020).

Set-up: method as in PMID 13064247
Conditions: mouse; cited from earlier work

Question: With “I^131-labelled mouse albumin: I^131-labelled mouse albumin, literature comparator for half-life” as the substance, how does the half-life read?
Answer: Its half-life is 21 h.
